Reference: ChEMBL document CHEMBL4673246, “Directing Drugs to Bugs: Antibiotic-Carbohydrate Conjugates Targeting Biofilm-Associated Lectins of Pseudomonas aeruginosa” (J Med Chem, 2020)

Assay: Inhibition of Pseudomonas aeruginosa PAO1 LecB expressed in Escherichia coli BL21(DE3) cells incubated for 4 to 8 hrs by (N-(fluorescein-5-yl)-N'-(alpha-L-fucopyranosyl ethylene)thiocarbamide) reporter based fluorescence polarization assay

IC50: 166 µM
Structure (SMILES): CO[C@H]1O[C@H](CO)[C@@H](O)[C@H](O)[C@@H]1O
